Experimental data: patent US20100016313A1, “INTESTINAL ALKALINE PHOSPHATASE MODULATORS AND USES THEREOF” (Burnham Institute for Medical Research, priority 2008, published 2010)

Target: T1, human IAP (Homo sapiens, UniProt P09923)
T1 construct: made in house; host or cells: COS-1 cells, transient expression from pCMV-Script; conditioned serum-free medium used as enzyme stock
T1 sequence (P09923 20-503 limits assumed): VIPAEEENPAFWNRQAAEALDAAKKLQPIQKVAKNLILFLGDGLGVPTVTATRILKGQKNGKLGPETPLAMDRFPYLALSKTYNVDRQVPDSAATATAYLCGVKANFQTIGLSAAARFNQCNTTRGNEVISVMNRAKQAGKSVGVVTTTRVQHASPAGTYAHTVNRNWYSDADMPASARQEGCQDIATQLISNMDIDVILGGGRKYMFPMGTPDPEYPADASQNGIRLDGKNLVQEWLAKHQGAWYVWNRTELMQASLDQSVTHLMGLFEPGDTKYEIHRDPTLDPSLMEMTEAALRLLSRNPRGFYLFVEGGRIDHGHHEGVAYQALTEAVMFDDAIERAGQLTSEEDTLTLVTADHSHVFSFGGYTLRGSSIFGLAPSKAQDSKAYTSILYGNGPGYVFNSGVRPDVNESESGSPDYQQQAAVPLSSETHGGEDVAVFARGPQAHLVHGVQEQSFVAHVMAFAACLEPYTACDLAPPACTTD
Assay: IAP assay using CDP-Star (chemiluminescent, dose response)
Assay type: biochemical
Excerpt: An expression vector pCMV-Script containing cDNA for human IAP, TNAP, PLAP, GCAP, mouse TNAP, dIAP, EAP or gIAP in secreted form (FLAG-tagged) is transfected into COS-1 cells for transient expression using a standard electroporation method. The GPI anchoring site is replaced by a FLAG sequence to make the proteins secreted into the media as well as to test their kinetics in a form immobilized by anti-FLAG antibody (Narisawa, et al, 2007). Medium is changed to serum free medium Opti-MEM (Invitrogen) 24 h later, and media containing secreted proteins was collected 66 hr after electroporation. Conditioned medium filtered by a 2 μm cellulose acetate membrane is supplemented with 0.1% BSA, aliquotted and stored at −80° C. […]
Compound aliquots (4 μL at […] in 10% DMSO) are added to 8 μL of human IAP working solution of a the human IAP stock solution diluted 1:80 in assay buffer (250 mM DEA, pH 9.8, −2.5 mM MgCl2, −0.05 μM ZnCl2). […] The CDP-Star system is chosen for the primary screening rather than the classic calorimetric assay using pNPP as a substrate, since the chemiluminescent reaction with CDP-Star has higher sensitivity and is not affected by the endogenous absorbance of some compounds in the library and/or of tissue extracts. The final concentration of CDP-Star (442.5 μM) is equal to its Km value determined in assay buffer. […]

O=C1C2C3C=CC(C3)C2C(=O)N1c1n[nH]c(CCc2ccccc2)n1 (stereo not shown) [Compound F10]
IC50: 4.75 µM
